Reference: ChEMBL document CHEMBL6087457
Active and inactive are the calls of the source. No cut-off for these calls is given here.

Amino acid sequences for entries named in this document (tags omitted). A change or cut given only in a name is not applied to a line headed by its entry.
UniProt O96013: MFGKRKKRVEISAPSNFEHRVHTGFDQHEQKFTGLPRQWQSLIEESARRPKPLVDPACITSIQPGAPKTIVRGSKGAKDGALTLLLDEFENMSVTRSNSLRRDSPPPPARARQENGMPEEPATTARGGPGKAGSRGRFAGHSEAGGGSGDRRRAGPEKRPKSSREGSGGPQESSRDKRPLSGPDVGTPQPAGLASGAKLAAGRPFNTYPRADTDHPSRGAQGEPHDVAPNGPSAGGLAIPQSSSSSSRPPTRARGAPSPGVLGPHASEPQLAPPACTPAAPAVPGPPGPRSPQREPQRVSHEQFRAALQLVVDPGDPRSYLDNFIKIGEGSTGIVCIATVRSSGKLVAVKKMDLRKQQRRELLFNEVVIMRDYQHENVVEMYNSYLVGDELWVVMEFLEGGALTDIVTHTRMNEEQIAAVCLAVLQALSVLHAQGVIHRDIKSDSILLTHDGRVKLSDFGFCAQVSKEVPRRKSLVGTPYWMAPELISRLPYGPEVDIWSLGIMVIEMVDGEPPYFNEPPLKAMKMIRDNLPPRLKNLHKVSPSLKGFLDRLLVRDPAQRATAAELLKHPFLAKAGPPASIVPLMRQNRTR
UniProt Q13464: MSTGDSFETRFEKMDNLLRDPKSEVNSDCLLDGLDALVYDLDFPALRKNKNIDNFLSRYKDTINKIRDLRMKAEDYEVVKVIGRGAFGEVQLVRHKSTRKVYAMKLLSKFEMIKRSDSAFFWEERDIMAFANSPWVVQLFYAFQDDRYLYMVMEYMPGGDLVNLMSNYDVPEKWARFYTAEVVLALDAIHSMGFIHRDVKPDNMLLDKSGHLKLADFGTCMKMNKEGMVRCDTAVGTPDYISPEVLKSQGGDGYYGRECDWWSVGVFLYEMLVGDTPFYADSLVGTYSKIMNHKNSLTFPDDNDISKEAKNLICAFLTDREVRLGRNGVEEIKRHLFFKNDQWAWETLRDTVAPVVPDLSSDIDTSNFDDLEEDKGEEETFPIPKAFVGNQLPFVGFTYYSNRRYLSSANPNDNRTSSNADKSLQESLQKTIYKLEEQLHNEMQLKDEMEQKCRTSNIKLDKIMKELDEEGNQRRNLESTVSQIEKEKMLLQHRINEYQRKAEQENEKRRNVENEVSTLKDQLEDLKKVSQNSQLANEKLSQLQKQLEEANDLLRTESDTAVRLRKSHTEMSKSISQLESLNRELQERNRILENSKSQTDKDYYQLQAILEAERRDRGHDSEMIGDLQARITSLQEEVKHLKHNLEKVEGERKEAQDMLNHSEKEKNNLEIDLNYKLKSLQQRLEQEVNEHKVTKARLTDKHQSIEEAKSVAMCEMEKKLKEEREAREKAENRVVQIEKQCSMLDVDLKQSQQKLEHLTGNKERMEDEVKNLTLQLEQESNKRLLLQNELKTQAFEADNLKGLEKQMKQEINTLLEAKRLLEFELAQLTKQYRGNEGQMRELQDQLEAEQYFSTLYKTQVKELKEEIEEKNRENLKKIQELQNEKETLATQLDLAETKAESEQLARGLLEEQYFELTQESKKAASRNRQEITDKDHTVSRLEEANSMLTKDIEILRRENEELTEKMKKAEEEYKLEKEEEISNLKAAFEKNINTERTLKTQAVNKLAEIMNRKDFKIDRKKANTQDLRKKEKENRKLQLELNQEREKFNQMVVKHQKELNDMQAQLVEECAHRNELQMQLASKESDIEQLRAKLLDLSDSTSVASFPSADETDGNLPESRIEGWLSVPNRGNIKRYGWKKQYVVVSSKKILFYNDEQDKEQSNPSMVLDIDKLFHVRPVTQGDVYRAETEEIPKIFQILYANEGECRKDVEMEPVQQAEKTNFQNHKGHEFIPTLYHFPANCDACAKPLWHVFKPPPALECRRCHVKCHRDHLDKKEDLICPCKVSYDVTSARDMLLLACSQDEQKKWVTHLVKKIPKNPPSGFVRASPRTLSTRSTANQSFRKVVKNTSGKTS
UniProt Q13153, whole entry: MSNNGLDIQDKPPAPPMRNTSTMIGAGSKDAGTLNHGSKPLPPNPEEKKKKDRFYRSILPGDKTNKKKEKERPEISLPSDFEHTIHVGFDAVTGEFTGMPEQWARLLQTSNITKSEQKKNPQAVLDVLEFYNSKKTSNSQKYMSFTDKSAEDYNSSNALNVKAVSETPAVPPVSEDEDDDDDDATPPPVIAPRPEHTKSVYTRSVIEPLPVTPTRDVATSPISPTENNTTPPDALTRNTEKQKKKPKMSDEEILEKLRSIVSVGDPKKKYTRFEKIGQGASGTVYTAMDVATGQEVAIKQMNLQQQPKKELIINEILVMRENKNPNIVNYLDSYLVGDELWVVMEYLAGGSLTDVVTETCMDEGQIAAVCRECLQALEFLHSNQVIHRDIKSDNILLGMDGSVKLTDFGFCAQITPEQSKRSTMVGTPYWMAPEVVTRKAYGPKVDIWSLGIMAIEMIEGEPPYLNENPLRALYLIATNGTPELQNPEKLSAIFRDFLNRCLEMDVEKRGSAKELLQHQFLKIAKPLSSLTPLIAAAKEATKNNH
UniProt Q5VT25: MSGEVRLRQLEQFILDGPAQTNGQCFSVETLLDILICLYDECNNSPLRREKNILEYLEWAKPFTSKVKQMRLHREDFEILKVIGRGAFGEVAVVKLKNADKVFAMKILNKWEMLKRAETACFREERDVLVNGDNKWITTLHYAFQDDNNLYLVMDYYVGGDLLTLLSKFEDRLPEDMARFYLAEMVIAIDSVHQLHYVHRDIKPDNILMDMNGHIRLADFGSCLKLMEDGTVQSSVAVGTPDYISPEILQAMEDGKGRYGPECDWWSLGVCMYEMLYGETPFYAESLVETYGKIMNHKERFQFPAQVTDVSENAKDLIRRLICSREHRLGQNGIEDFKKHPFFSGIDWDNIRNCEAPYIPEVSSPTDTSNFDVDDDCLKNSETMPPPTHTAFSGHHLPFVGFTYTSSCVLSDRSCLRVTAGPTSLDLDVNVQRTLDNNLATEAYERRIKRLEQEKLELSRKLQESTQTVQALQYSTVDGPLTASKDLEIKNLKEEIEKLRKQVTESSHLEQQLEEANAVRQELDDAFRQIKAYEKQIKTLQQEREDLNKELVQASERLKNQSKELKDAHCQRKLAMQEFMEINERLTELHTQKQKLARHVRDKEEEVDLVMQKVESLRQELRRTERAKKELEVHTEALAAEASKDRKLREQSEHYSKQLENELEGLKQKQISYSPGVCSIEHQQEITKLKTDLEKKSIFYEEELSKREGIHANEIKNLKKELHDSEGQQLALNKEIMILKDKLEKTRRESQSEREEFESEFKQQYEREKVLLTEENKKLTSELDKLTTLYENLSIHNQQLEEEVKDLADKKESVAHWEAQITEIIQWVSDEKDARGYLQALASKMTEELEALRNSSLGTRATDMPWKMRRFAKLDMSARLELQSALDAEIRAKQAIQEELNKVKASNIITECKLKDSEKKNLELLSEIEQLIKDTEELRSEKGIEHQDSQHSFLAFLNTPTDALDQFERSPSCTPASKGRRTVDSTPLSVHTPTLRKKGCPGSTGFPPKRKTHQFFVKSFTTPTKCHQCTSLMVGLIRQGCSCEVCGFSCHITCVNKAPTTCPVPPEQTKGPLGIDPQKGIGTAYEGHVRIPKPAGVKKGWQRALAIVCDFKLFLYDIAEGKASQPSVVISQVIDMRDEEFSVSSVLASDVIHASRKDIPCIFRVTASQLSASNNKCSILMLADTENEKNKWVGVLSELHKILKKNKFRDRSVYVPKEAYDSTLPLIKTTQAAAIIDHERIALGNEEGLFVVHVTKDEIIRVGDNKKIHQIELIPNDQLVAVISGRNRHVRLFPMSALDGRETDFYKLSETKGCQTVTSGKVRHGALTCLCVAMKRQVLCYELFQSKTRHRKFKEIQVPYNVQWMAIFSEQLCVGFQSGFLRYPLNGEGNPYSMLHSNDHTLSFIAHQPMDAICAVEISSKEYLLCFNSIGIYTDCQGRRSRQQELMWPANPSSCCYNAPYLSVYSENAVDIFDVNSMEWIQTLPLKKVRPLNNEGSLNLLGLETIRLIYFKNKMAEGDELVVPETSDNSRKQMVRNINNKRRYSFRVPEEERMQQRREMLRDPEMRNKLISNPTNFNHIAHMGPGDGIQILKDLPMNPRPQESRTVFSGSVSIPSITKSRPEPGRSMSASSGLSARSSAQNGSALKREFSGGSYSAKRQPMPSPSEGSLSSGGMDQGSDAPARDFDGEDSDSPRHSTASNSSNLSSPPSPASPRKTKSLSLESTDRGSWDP
UniProt O75116: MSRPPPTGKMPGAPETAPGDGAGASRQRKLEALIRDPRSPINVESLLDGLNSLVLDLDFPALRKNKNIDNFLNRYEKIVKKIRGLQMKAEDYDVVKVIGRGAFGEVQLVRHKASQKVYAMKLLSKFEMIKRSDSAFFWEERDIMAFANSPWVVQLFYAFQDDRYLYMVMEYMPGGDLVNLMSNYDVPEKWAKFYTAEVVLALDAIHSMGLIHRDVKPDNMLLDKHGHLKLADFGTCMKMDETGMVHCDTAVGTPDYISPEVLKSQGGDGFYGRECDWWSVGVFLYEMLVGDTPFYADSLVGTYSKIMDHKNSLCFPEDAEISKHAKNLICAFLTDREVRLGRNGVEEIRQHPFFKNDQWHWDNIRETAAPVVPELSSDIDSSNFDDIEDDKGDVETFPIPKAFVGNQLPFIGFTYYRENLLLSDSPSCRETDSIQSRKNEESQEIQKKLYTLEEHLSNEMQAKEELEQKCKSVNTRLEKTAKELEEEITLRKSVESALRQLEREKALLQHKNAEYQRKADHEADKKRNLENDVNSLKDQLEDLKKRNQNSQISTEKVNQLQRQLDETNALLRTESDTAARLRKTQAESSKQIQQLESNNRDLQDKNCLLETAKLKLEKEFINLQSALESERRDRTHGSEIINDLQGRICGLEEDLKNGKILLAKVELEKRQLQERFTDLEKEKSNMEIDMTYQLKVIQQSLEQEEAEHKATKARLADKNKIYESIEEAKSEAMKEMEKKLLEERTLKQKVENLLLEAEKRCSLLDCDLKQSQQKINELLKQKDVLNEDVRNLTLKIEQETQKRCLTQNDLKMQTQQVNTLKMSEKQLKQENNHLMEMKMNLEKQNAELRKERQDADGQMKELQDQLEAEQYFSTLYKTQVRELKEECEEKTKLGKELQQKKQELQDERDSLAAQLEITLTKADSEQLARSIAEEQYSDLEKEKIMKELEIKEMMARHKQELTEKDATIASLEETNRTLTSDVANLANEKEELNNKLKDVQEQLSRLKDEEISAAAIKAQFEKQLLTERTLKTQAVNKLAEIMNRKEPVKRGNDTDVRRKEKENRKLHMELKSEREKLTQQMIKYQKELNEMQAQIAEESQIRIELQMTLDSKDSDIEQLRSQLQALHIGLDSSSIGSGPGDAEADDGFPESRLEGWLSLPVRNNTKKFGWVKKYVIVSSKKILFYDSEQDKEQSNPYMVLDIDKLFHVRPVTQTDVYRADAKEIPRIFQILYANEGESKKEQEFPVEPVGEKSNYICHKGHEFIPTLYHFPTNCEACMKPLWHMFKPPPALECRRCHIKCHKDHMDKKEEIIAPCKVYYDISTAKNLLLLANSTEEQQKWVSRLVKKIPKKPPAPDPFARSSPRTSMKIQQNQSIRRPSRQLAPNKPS
UniProt Q13177, whole entry: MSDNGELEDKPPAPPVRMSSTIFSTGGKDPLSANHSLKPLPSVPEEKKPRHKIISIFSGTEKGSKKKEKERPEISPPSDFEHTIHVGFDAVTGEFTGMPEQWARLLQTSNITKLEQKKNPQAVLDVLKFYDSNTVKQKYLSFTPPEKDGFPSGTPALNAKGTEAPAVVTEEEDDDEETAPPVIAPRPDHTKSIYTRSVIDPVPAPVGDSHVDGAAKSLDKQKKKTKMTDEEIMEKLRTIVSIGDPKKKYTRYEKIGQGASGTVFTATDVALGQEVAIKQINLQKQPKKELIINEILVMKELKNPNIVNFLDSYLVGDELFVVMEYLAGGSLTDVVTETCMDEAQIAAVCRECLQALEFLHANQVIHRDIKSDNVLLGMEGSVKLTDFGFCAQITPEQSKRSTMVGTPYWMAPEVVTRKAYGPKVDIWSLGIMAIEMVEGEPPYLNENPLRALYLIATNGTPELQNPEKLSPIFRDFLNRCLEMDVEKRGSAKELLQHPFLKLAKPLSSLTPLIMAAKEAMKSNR

Experiments:
[1] = target: Serine/threonine-protein kinase PAK 4 (Homo sapiens) (UniProt O96013); test: Binding affinity to PAK4 (unknown origin) at 300 nM by KINOMEscan analysis relative to control
[2] = target: Dual specificity testis-specific protein kinase 1 (Homo sapiens) (UniProt Q15569); test: Binding affinity to TESK1 (unknown origin) at 300 nM by KINOMEscan analysis relative to control
[3] = target: Rho-associated protein kinase 1 (Homo sapiens) (UniProt Q13464); test: Binding affinity to ROCK1 (unknown origin) at 300 nM by KINOMEscan analysis relative to control
[4] = target: T1, Calcium/calmodulin-dependent protein kinase type IV (Homo sapiens) (UniProt Q16566); test: Binding affinity to CaMKIV (unknown origin) at 300 nM by KINOMEscan analysis relative to control
T1 sequence (whole entry): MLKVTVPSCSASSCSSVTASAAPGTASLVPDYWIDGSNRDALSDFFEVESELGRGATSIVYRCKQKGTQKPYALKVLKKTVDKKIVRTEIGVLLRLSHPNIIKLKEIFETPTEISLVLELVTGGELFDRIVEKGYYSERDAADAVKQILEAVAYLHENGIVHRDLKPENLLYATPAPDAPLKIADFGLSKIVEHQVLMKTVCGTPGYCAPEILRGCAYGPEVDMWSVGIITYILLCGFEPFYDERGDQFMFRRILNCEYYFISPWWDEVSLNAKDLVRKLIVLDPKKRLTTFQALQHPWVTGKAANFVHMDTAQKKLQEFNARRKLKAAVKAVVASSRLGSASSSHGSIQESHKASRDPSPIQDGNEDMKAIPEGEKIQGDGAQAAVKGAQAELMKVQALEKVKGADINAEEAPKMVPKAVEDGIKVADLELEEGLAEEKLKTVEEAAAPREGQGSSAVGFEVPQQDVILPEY

[5] = target: Serine/threonine-protein kinase PAK 1 (Homo sapiens) (UniProt Q13153); test: Binding affinity to PAK1 (unknown origin) at 300 nM by KINOMEscan analysis relative to control
[6] = target: Cannabinoid receptor 1 (Homo sapiens) (UniProt P21554); test: Agonist activity at human CB1 receptor at 10 uM by CEREP SafetyScreen44 panel analysis relative to control; type: functional; conditions: filed as agonist
[7] = target: Serine/threonine-protein kinase MRCK alpha (Homo sapiens) (UniProt Q5VT25); test: Binding affinity to MRCK-alpha (unknown origin) at 300 nM by KINOMEscan analysis relative to control
[8] = target: Rho-associated protein kinase 2 (Homo sapiens) (UniProt O75116); test: Binding affinity to ROCK2 (unknown origin) at 300 nM by KINOMEscan analysis relative to control
[9] = target: Serine/threonine-protein kinase PAK 2 (Homo sapiens) (UniProt Q13177); test: Binding affinity to PAK2 (unknown origin) at 300 nM by KINOMEscan analysis relative to control

With `O=C(c1ccc(S(=O)(=O)Nc2ccccc2)cc1)N(Cc1ccc(NCCO)cc1)CC1CC1` the Activity [1] was “inactive”, the Activity [2] was “inactive” and the Activity [3] was “inactive”. The Activity [4] was “inactive”, the Activity [5] was “inactive” and the Activity [6] was greater than 50%. For the same compound, the Activity [7] was “inactive”, the Activity [8] was “inactive” and the Activity [9] was “inactive”.
